Ab-14 light chain CDR variants: yeast mating affinities

Antigen: PDVDLGDISGINAS, a 14-residue peptide of the SARS-CoV-2 spike HR2 region.

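AAYL50 was designed without a model: most single CDR substitutions and a random sample of double and triple ones. Affinity was read by AlphaSeq, a pooled yeast mating assay with surface-displayed partners. Mating (16 h, 30 °C) was followed by selection of diploids and sequencing of their barcodes. A regression on co-assayed BCL2-family reference pairs converts the normalised counts of each replicate to an apparent Kd. The assay was run in three technical replicates.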

Each scFv is VH, a (GGGGS)3 linker, VL, as in the parent Ab-14, and differs from it in the CDRs of the light chain only.
VH: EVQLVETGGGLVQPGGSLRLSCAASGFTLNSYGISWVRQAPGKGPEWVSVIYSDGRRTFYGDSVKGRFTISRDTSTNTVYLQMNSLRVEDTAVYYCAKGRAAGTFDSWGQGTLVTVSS
VL: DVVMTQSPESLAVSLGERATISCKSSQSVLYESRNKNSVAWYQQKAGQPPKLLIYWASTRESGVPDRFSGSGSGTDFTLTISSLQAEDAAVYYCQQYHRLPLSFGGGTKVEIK

Positions count from residue 1 of the parent VL; E32S puts S in place of E.
The read-out is the apparent dissociation constant on a log10 scale (nM): the lower, the stronger.
The mean shown is taken over the replicates in which the pair was detected.
"n.d." means that the variant was in the library but no mating with the target was seen in that replicate; the authors take this as a sign of poor binding, and no number exists.
In this assay the parent's reference entry averaged 0.65; its copy inside this library read 1.68.
Background: pairings of library AAYL50 with three empty control strains gave a value in 18% of cases (median 4.19, 5th percentile 2.99). Values in that range, when seen in few replicates, are hard to tell from nonspecific mating.

| changes | log10 Kd, replicates | mean log10 Kd (nM) |
|---|---|---|
| E32S+N37R+S38M | n.d. n.d. 5.05 | 5.05 |
| Y31G+N37S+V39Q | 6.11 n.d. n.d. | 6.11 |
| Y31P+R34H+H98C | n.d. 4.52 n.d. | 4.52 |
| K24H+S33K+K36Y | 1.67 2.00 2.10 | 1.93 |
| K24W+V29H+S38T | n.d. 3.08 n.d. | 3.08 |
| S33H+Q96M+Y97P | n.d. n.d. n.d. | n.d. |
| K36L+L100R+P101V | n.d. n.d. 5.13 | 5.13 |
| S25M+S28D+R60H | 0.89 1.00 0.58 | 0.82 |
| K36W+V39W+Q96V | 5.43 5.79 n.d. | 5.61 |
| Q27Y+Y31S+Q95P | n.d. n.d. n.d. | n.d. |
| Q27I+Q95F+R99S | n.d. n.d. n.d. | n.d. |
| S26P+L30R+R99M | 0.86 1.29 1.12 | 1.09 |
| R34P+R60Y+Q95K | n.d. n.d. n.d. | n.d. |
| Y31E+Y97S+L100A | n.d. n.d. 3.67 | 3.67 |
| Y31V+K36L+L100Q | 1.54 1.65 2.08 | 1.76 |
| V29M+N35H+V39Q | 4.48 3.01 n.d. | 3.75 |
| S28W+Q95N+L102P | n.d. n.d. n.d. | n.d. |
| R34D+E61C | -0.14 0.08 0.00 | -0.02 |
| S25T+E61N | 0.79 0.81 0.67 | 0.76 |
| S58C+Q96P+P101W | n.d. n.d. n.d. | n.d. |
| S28T+L30S+Q95K | n.d. n.d. n.d. | n.d. |
| V29W+N35F+K36W | n.d. 2.25 n.d. | 2.25 |
| W56F+L100S+S103K | 1.15 1.02 1.58 | 1.25 |
| S33V+A40P+Q96A | n.d. n.d. n.d. | n.d. |
| S33Q+R34A | 4.98 4.93 n.d. | 4.96 |
| S58Y+R60D+S62I | n.d. n.d. n.d. | n.d. |
| Q95R+Y97N | 0.88 1.15 1.02 | 1.02 |
| L30D+V39S+W56P | 4.50 n.d. n.d. | 4.50 |
| S25M+Q27W+Q95V | n.d. n.d. n.d. | n.d. |
| N35G+K36V+Y97C | n.d. n.d. n.d. | n.d. |
| S26E+Q27M+R34Y | 0.69 0.89 0.67 | 0.75 |
| N37M+W56Y+R60A | n.d. n.d. 3.81 | 3.81 |

For reference, 2 entries of the list once more:

changes	log10 Kd, replicates	mean log10 Kd (nM)
R34D+E61C	-0.14 0.08 0.00	-0.02
Q27I+Q95F+R99S	n.d. n.d. n.d.	n.d.

Values reported by Engelhart et al. 2022, doi:10.1038/s41597-022-01779-4 (FLAb copy).